# Biological target: MAO-B (Homo sapiens, UniProt P27338)
# The chains behind the UniProt entries cited, without tags or fusion partners.
# UniProt P27338, whole entry: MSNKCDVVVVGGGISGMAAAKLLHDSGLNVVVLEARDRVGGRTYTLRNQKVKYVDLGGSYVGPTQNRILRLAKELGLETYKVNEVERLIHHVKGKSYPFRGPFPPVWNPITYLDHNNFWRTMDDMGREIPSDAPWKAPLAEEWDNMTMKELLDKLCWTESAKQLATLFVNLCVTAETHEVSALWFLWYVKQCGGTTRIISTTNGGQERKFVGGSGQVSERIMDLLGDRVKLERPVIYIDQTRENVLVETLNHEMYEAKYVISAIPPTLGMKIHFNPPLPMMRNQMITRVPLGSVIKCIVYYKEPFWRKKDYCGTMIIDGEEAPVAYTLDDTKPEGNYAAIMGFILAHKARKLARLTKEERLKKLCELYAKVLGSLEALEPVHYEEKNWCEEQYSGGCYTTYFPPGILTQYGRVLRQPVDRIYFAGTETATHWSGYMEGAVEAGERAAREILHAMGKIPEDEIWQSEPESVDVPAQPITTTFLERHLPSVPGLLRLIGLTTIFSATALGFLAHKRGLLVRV
# Test: MAO-B inhibition assay (benzylamine substrate)
# Format: biochemical
# Settings: selectivity for MAO-B over MAO-A
smiles,measurement,value
O=C(/C=C/c1ccccc1)c1ccc(N2CCOCC2)cc1 [MO1],SI = IC50 of MAO-A/IC50 of MAO-B,> 1333.3
